Earlier results as cited in patent US20060062859A1, “Composition and method to optimize and customize nutritional supplement formulations by measuring genetic and metabolomic contributing factors to disease diagnosis, stratification, prognosis, metabolism, and therapeutic outcomes” (priority 2004, published 2006).

Protein sequences, listed by entry. Tags and fused reporters are not part of them.
UniProt P61169, whole entry: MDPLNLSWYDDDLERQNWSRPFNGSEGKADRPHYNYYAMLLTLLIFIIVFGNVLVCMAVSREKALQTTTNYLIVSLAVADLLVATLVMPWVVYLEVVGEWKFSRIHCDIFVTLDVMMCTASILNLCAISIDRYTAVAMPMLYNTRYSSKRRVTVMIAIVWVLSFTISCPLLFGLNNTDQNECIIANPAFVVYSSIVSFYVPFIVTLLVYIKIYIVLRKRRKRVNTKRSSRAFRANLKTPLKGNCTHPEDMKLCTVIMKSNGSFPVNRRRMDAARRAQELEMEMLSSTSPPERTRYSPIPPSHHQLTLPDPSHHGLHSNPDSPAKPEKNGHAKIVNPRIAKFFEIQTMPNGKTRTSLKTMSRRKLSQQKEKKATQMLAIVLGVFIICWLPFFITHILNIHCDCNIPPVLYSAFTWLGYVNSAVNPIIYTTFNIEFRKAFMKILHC

Target: T1, D2 receptors in the Nacc (Rattus norvegicus, UniProt P61169)
T1 construct: from tissue; host or cells: nucleus accumbens in vivo; study cited from the literature
Details: bilateral, nmol/side; cited from earlier work

CCCN1CCC[C@@H]2Cc3n[nH]cc3C[C@H]21 [quinpirole]
persistent phase of formalin-induced nociception: inhibited
